Chains of the proteins cited; added tags and fusions are not shown. Residues count along the entry.
UniProt P06276, 29-602 limits assumed: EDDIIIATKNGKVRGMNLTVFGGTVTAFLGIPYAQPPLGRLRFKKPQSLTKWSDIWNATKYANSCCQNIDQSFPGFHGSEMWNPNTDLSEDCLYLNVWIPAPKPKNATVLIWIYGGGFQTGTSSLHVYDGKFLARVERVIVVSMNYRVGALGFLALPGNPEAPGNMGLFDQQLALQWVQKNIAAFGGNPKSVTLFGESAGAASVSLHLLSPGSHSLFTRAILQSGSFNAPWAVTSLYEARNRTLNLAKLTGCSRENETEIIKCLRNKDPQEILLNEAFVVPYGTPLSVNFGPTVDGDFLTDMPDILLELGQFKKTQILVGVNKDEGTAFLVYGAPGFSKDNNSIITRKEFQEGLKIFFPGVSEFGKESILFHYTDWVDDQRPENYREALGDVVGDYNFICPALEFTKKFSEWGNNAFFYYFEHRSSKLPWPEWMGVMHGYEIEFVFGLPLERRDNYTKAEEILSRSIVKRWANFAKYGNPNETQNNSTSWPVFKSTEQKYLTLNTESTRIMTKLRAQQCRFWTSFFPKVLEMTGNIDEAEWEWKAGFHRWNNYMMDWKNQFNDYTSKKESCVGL

According to BindingDB's records for 21144749:

What was measured:
[1] = molecular target: T1, Cholinesterase (Homo sapiens, UniProt P06276); assay: Inhibition of human recombinant BChE
[2] = molecular target: T1, Cholinesterase; assay: Inhibition of human recombinant AChE assessed as dissociation constant for enzyme-inhibitor-substrate complex by Lineweaver-Burk plot

Compound	IC50 [1] [µM]	Ki [2] [µM]
CC(C)(C)c1cc[n+](CCOCC[n+]2ccc(C(C)(C)C)cc2)cc1	241	
O=NCc1cc[n+](COC[n+]2ccc(CN=O)cc2)cc1	1910	
CCN(CC)C(C)CN1c2ccccc2Sc2ccccc21 (centres undefined)		12100
CC(C)(C)c1cc[n+](/C=C2\C=CC3=CC/C(=C\[n+]4ccc(C(C)(C)C)cc4)C=C3C2)cc1		0.1
